Test system: MES (electrical stimulus) seizure
Assay: Anti-excitation activity using MES test
Assay type: in vivo, male ICR mice
Details: MES test (po), mice

CCCC[C@H](OC(N)=O)[C@@H](O)c1ccccc1Cl
Protection % (percentage of activity compared to the vehicle only) (injection amount 100 mg/kg): 100 ^a(75%)

CCCC[C@H](OC(N)=O)[C@@H](O)c1ccc(Cl)cc1Cl
Protection % (percentage of activity compared to the vehicle only) (injection amount 100 mg/kg): 100 ^a(25%)

C[C@H](OC(N)=O)[C@@H](O)c1ccccc1I [Compound 65, 1-(2-iodophenyl)-(S)-1-hydroxypropyl-(S)-2-carbamate]
Protection % (percentage of activity compared to the vehicle only) (injection amount 50 mg/kg): 50 ^a(100%)

CCC(OC(N)=O)C(O)c1ccccc1Cl (racemic)
Protection % (percentage of activity compared to the vehicle only) (injection amount 100 mg/kg): 100 ^a(100%)

CCCC[C@@H](OC(N)=O)[C@H](O)c1ccccc1Cl
Protection % (percentage of activity compared to the vehicle only) (injection amount 200 mg/kg): 200 ^a(75%)

CC[C@H](OC(N)=O)[C@@H](O)c1ccccc1I [Compound 67, 1-(2-iodophenyl)-(S)-1-hydroxybutyl-(S)-2-carbamate]
Protection % (percentage of activity compared to the vehicle only) (injection amount 100 mg/kg): 100 ^a(100%)

CCCC[C@H](OC(N)=O)[C@@H](O)c1c(Cl)cccc1Cl
Protection % (percentage of activity compared to the vehicle only) (injection amount 100 mg/kg): 100 ^a(75%)

CCCCC(OC(N)=O)C(O)c1ccccc1Cl (racemic)
Protection % (percentage of activity compared to the vehicle only) (injection amount 200 mg/kg): 200 ^a(100%)

C[C@H](OC(N)=O)[C@@H](O)c1ccccc1F [Compound 63, 1-(2-fluorophenyl)-(S)-1-hydroxypropyl-(S)-2-carbamate]
Protection % (percentage of activity compared to the vehicle only) (injection amount 50 mg/kg): 50 ^a(100%)
